Compounds with a hit are over-represented: about 1.6% of the library has one in this group of screens.
CAL PDZ FP-1 – blocks peptide binding to human CAL PDZ domain; AID 504414; purified CAL PDZ, TMR-peptide fluorescence polarization, 1 h; Q9HD26; 330,000 tested, 0.02% active; inhibition, % at 20 µM;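 active = highest replicate inhibition of at least 40%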
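Assay system – tagged CAL PDZ protein CerCALP, purified · Timing – 1 h at RT · Compound – single point, 20 µM · Measured by – fluorescence polarization from S- and P-plane intensities, G-factor corrected · Evaluation – inhibition from polarization loss · Probe or stimulus – TMR reporter peptide T*-PRC34 · Buffer or medium – pH 7.4 phosphate-saline buffer, reducing agent, detergent, IgG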
Vif inh – HIV Vif inhibition | HEK293T cells, Vif self-association by quenched fluorescence, imaging, 24 h | 340,000 tested, 0.35% active | inhibition, % at 7.49 µM; in the data active = inhibition above about 50%, passing the limit was not always enough
Yeast UUG start – alters start codon recognition fidelity in yeast | S. cerevisiae UUG-firefly luciferase reporter, luminescence/redox ratio | activity score, % at 18.7 µM | 350,000 compounds, 0.13% hits | AID 602363;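 active = replicate mean at a twofold rise or more, about +100% in these data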;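 note: firefly luciferase made from a UUG start codon reports start codon fidelity; reporter light over untreated wells divided by growth signal over untreated wells; some hits fall short of that in this replicate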
PglD DTNB – blocks C. jejuni PglD acetyltransferase activity. 360,000 tested, 0.098% active. inhibition, % at 12.5 µM. AID 602405. purified PglD enzyme, DTNB colorimetric CoA detection; in the data active = inhibition above about 16%, passing the limit was not always enough
CAL PDZ FP-2 – CAL PDZ (human) peptide binding inhibition; purified CAL PDZ, TMR-peptide fluorescence polarization, 1 h; AID 602252; Q9HD26; inhibition, % at 24.9 µM; 300,000 tested, 0.92% active;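 active = mean inhibition of at least 30% with at least half of replicates also reaching 30%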
ARNT-TACC3 inh – disruptors of human ARNT/TACC3 interaction | AlphaScreen His-ARNT PAS-B/GST-TACC3 binding, luminescence; TACC3 fragment carries E629A point mutation | 390,000 tested, 0.66% active | inhibition, % at 9.99 µM;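 active = mean inhibition of replicates at least 50% and at least half of replicates each reaching 50%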
Numbers stand for hits; . = inactive; / = no result.

SMILES	CAL PDZ FP-1	Vif inh	Yeast UUG start	PglD DTNB	CAL PDZ FP-2	ARNT-TACC3 inh
O=C(Nc1ccc(NC(=O)c2ccco2)c(Cl)c1)c1ccccc1	.	.	/	/	/	.
CC(C)NC(=O)N[C@H]1CC[C@H](CCNC(=O)C2CC2)O[C@@H]1CO	/	/	.	.	/	.
O=C(Nc1cc(Br)ccc1C(=O)NCc1cccc(O)c1)c1ccccc1	/	/	.	.	/	.
C[C@@H]1CN([C@H](C)CO)C(=O)Cc2cc(NC(=O)CCCCCC(=O)Nc3ccccc3N)ccc2O[C@H]1CN(C)Cc1ccc(-c2ccccc2)cc1	/	/	.	.	/	.
O=C(Cn1[nH]c(=O)c2ccccc2c1=O)OCC(=O)N1CCc2ccccc2C1	.	.	/	/	/	.
O=C(Cn1[nH]c(=O)c2ccccc2c1=O)OCC(=O)N1CCCc2ccccc21	.	.	.	.	69	.
COc1cc(/C=C/C(=O)OCC(=O)N2CCCc3ccccc32)ccc1OCC#N	.	/	.	.	.	/
COc1ccc(/C=C/C(=O)O)cc1S(=O)(=O)N1CCCc2ccccc21	.	.	.	.	.	.
COc1cc(/C=C/C(=O)OCC(=O)N2CCCc3ccccc32)ccc1O	.	68	.	.	.	.
CCOC(=O)c1c(C)[nH]c(C(=O)COC(=O)/C=C/c2ccc(O)c(OC)c2)c1C	.	50	/	/	.	.
COc1cc(/C=C/C(=O)O)ccc1S(=O)(=O)N1CCCc2ccccc21	.	96	.	/	.	.
COc1ccc(NC(=O)N(C)C[C@@H]2Oc3ncc(C#CC(C)C)cc3C(=O)N([C@H](C)CO)C[C@@H]2C)cc1	/	/	.	.	/	.
CN(C)C(=O)c1ccc(NC(=O)c2ccc(-c3ccc(Cl)cc3)o2)cc1	.	.	.	.	62	.
O=C(Nc1cccnc1)c1ccc(-c2ccc(Cl)cc2)o1	.	.	/	/	.	.
O=C(c1ccccc1)c1c[nH]c(C(=O)C(Cl)(Cl)Cl)c1	.	.	/	/	.	.
O=C(Cc1ccccc1)c1c[nH]c(C(=O)C(Cl)(Cl)Cl)c1	.	.	.	.	168	.
Cc1cccc(Cn2c(C)c(C)c3cc(C(=O)NCCN4CCOCC4)ccc32)c1	.	.	.	.	.	.
Cc1c(C)n(Cc2ccc(F)cc2)c2ccc(C(=O)NCCN3CCOCC3)cc12	.	.	.	.	90	.
Cn1c(=O)[nH]c(=O)c2c1nc([N+](=O)[O-])n2Cc1ccccc1	.	99	/	/	.	.
CC(=O)CSc1nc2c(c(=O)[nH]c(=O)n2C)n1Cc1cccc(Br)c1	.	.	.	.	57	.
C[C@@H]1CCCCO[C@@H](CN(C)S(=O)(=O)c2cn(C)cn2)[C@@H](C)CN([C@H](C)CO)C(=O)c2cc(NS(=O)(=O)c3ccccc3)ccc2O1	/	/	.	.	/	.
CN(C)C(=O)c1cccc(-c2ccc3c(c2)[C@@H]2[C@@H](CCN2C(=O)Nc2ccc(F)cc2)[C@H](CO)N3C)c1	/	/	.	.	/	.
CC(C)(/C=N/O)/[N+]([O-])=C/c1ccco1	.	.	.	.	.	.
Cc1nc(/C=[N+](\[O-])C(C)(C)/C=N/O)n(O)c1C	.	.	.	.	59	.
CCCC(=O)Nc1ccc2c(c1)OC[C@@H](C)N(CCC(F)(F)F)C[C@H](C)[C@@H](OC)CN(C)C2=O	/	/	.	.	/	.
SMILES	CAL PDZ FP-1	Vif inh	Yeast UUG start	PglD DTNB	CAL PDZ FP-2	ARNT-TACC3 inh
Cc1cc(C(=O)COC(=O)c2ccc(N)c([N+](=O)[O-])c2)c(C)n1-c1ccc2c(c1)OCO2	.	.	.	.	.	.
Cc1cc(C(=O)COC(=O)c2ccc(N)c([N+](=O)[O-])c2)c(C)n1Cc1ccc2c(c1)OCO2	.	.	.	.	123	.
C[C@@H]1CCCCO[C@H](CN(C)C(=O)NC2CCCCC2)[C@@H](C)CN([C@H](C)CO)C(=O)c2cc(NC(=O)NC3CCCCC3)ccc2O1	/	/	.	.	/	.
C[C@@H]1CN([C@H](C)CO)C(=O)c2cc(-c3cncnc3)cnc2O[C@H]1CN(C)C(=O)c1ccccc1F	/	/	.	.	/	active
COc1cccc2sc(Nc3nc(-c4ccccn4)cs3)nc12	.	.	.	.	.	45
c1ccc(-c2csc(Nc3cccnc3)n2)nc1	.	/	.	.	/	45
C[C@H](CO)N1C[C@H](C)[C@H](CN(C)C(=O)NC2CCCC2)Oc2ncc(C#CCN(C)C)cc2C1=O	/	/	.	.	/	.
COc1ccc(S(=O)(=O)N(C)C[C@@H]2Oc3ccc(NS(=O)(=O)c4cn(C)cn4)cc3CC(=O)N([C@@H](C)CO)C[C@@H]2C)cc1	/	/	.	.	/	/
CCN1CCN(c2cc(=O)n(-c3cc(Cl)ccc3C)c(=O)[nH]2)CC1	.	58	.	.	/	.
Cc1ccccc1-n1c(=O)cc(N2CCN(Cc3ccccc3)CC2)[nH]c1=O	.	/	.	.	.	.
C[C@@H]1CN([C@H](C)CO)C(=O)Cc2cc(NC(=O)Cn3cnnn3)ccc2O[C@@H]1CN(C)CC1CCCCC1	/	/	.	.	/	.
OC1(c2ccc3ccccc3c2)CCN(Cc2ccccc2)C1 (stereo not drawn)	.	.	.	.	38	.
C[C@@H]1CCCCO[C@H](CN(C)C(=O)Cc2ccccc2)[C@@H](C)CN([C@H](C)CO)C(=O)c2cc(NC(=O)Nc3ccc(F)cc3)ccc2O1	/	/	.	.	/	.
Cc1ccc(S(=O)(=O)N(C)C[C@@H]2Oc3ccc(NC(=O)CCCCCC(=O)Nc4ccccc4N)cc3CC(=O)N([C@H](C)CO)C[C@H]2C)cc1	/	/	.	.	/	.
O=C(CN1CCOCC1)OCCCC1CCCCC1	.	54	.	.	.	.
O=C(CCC1CCCCC1)NCCN1CCOCC1	.	.	.	.	.	.
Cc1ccc(S(=O)(=O)Nc2ccc3c(c2)CC(=O)N([C@H](C)CO)C[C@H](C)[C@H](CN(C)S(=O)(=O)c2cn(C)cn2)O3)cc1	/	/	.	.	/	.
Fc1ccc(NC(=S)Nc2ccc3nccnc3c2)cc1	.	.	/	/	.	64
OCCCNC(=S)Nc1ccc2nccnc2c1	.	.	/	/	/	.
O=S(=O)(N[C@@H]1CC[C@H](CCn2cc(C3(O)CCCC3)nn2)O[C@H]1CO)c1ccccc1	/	/	.	.	/	.
N#CC(C#N)=Cc1c(N2CCN(c3ccccc3)CC2)nc2ccccn2c1=O	.	.	.	.	48	.
N#C/C(=C\c1c(N2CCCCC2)nc2ccccn2c1=O)S(=O)(=O)c1ccccc1	.	.	/	/	55	.
N#C/C(=C\c1c(N2CCN(c3ccccc3)CC2)nc2ccccn2c1=O)S(=O)(=O)c1ccccc1	.	.	.	.	.	.
COc1ccc(C2CC(C(F)(F)F)n3nc(C(=O)O)c(Cl)c3N2)cc1OC (stereo not drawn)	.	.	335	.	/	.
COc1ccc(C2CC(C(F)(F)F)n3nc(CO)c(Cl)c3N2)cc1OC (stereo not drawn)	.	.	.	.	/	.
